Source: patent US8461328B2, “Tricyclic heterocyclic compounds, compositions and methods of use thereof” (Genentech, Inc., priority 2010, dated 2013)
Read-outs that look alike come from different tables or passages of the source.

Amino acid sequences for entries named in this document (tags omitted). Residues count along the entry.
UniProt P23458, 852-1154: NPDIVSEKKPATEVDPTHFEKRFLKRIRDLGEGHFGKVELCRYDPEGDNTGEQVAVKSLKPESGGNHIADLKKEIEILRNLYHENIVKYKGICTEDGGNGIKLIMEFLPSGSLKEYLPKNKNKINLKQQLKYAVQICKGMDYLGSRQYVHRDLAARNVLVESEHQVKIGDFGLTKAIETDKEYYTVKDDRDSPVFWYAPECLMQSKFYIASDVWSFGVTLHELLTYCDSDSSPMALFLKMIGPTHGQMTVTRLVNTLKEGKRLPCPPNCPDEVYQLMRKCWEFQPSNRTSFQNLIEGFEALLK
UniProt O60674, 812-1132: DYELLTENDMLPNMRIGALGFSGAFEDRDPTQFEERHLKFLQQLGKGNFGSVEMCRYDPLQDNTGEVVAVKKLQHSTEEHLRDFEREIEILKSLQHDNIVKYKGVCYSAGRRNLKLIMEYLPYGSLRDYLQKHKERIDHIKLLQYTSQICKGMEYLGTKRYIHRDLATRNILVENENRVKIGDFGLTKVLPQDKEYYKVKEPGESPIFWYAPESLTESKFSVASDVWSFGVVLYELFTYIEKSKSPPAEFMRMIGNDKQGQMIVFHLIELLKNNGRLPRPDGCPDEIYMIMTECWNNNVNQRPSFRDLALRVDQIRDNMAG
UniProt P52333, 783-1124: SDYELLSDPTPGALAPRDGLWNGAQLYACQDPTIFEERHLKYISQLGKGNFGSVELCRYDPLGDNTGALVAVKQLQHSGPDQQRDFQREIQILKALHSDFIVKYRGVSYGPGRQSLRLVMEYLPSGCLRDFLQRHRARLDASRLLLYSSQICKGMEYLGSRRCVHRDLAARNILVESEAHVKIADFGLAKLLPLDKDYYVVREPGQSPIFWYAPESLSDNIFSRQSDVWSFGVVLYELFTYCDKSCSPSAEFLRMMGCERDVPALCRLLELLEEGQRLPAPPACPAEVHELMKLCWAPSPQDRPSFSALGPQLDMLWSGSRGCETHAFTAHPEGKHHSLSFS

Key:
Assay type in all cases: biochemical
JAK1 = target: T1, JAK1 (Homo sapiens, UniProt P23458); assay: JAK1 inhibition (Table 4)
T1 construct: made in house; host or cells: SF9 insect cells (baculovirus)

JAK2 = target: T2, JAK2 (Homo sapiens, UniProt O60674); assay: JAK2 inhibition (Table 4)
T2 construct: made in house; host or cells: SF9 insect cells (baculovirus)

TYK2 = target: T3, TYK2 (Homo sapiens, UniProt P29597); assay: TYK2 inhibition (Table 4)
T3 construct: made in house; host or cells: SF9 insect cells (baculovirus)
T3 sequence (P29597 873-1187): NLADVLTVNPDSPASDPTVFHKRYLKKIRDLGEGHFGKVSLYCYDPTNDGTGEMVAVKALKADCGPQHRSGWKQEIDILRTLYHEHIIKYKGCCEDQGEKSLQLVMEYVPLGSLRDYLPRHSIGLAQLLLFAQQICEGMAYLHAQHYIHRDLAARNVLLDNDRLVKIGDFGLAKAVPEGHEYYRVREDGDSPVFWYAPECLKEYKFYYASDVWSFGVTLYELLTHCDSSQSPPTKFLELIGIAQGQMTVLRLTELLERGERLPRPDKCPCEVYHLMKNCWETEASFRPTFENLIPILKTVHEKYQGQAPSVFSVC

JAK3 = target: T4, JAK3 (Homo sapiens, UniProt P52333); assay: JAK3 inhibition (Table 4)
T4 construct: made in house; host or cells: SF9 insect cells (baculovirus)

Row | Compound | Ki (JAK1; JAK1 Ki) [nM] | Ki (JAK2; read-out: JAK2 Ki) [nM] | Ki (TYK2; read-out: TYK2 Ki) [nM] | Ki (JAK1; read-out: JAK1 Ki) [nM] | Ki (JAK3; read-out: JAK3 Ki) [nM] | Ki (TYK2; TYK2 Ki) [nM] | Ki (JAK3; JAK3 Ki) [nM] | Ki (JAK2; JAK2 Ki) [nM]
1 | CO[C@H]1CC[C@H](n2c([C@@H](C)O)nc3cnc4[nH]ccc4c32)CC1 [Example 635, Trans (R)-1-[1-(4-methoxy-cyclohexyl)-1,6-dihydro-1,2,3,5,6-tetraaza-as-indacen-2-yl]-ethanol] | 4.04 | 75.4 | 11.3 |  |  |  |  | 
2 | 1-Cyclohexyl-2-methyl-1,6-dihydro-1,2,3,5,6-tetraaza-as-indacene-d11 [Example 673] |  | 3.24 | 2.15 | 0.69 | 3.96 |  |  | 
3 | C[C@@H](O)c1nc2cnc3[nH]ccc3c2n1C1CCC(CCC#N)CC1 (stereo partly drawn) [Example 1007, 3-{4-[2-((R)-1-Hydroxy-ethyl)-6H-1,3,5,6-tetraaza-as-indacen-1-yl]-cyclohexyl}-propionitrile] | 8.25 | 19.7 | 11.5 |  |  |  |  | 
4 | Cc1nc2cnc3[nH]ccc3c2n1C1CCOCC1 [Example 540, 2-Methyl-1-(tetrahydro-pyran-4-yl)-1,6-dihydro-1,3,5,6-tetraaza-as-indacene] |  |  |  |  |  | 35.9 | 16.5 | 
5 | N[C@H]1CC[C@H](n2nnc3cnc4[nH]ccc4c32)CC1 [Example 279, 4-(6H-1,2,3,5,6-Pentaaza-as-indacen-1-yl)-cyclohexylamine] | 9.59 | 30.4 | 123 |  |  |  |  | 
6 | N#CCCN[C@H]1CC[C@H](n2nnc3cnc4[nH]ccc4c32)CC1 [Example 280, 3-[4-(6H-1,2,3,5,6-Pentaaza-as-indacen-1-yl)-cyclohexylamino]-propionitrile] | 4.37 |  | 61.5 |  |  |  |  | 13.7
7 | C[C@@H](O)c1nc2cnc3[nH]ccc3c2n1[C@H]1CC[C@H](CCC#N)CC1 [Example 647, Trans 3-{4-[2-((R)-1-Hydroxy-ethyl)-6H-1,2,3,5,6-tetraaza-as-indacen-1-yl]-cyclohexyl}-propionitrile] | 0.34 | 3.8 | 1.64 |  | 7.71 |  |  | 
8 | O[C@H]1CC[C@H](n2nnc3cnc4[nH]ccc4c32)CC1 [Example 546, trans 4-(6H-1,2,3,5,6-Pentaaza-as-indacen-1-yl)-cyclohexanol] | 9.97 | 19.6 | 74.2 |  |  |  |  | 
